This test deals with Endothelin-1 receptor (Homo sapiens, UniProt P25101). Nature of the test: Antagonist activity at ETA receptor in human pericardial smooth muscle cells assessed as inhibition of endothelin-1-induced [32H]arachidonic acid release incubated for 30 mins by radioactivity based assay. It counts as functional, cell-based, Pericardial smooth muscle cell.

The chains behind the UniProt entries cited, without tags or fusion partners.
UniProt P25101, whole entry: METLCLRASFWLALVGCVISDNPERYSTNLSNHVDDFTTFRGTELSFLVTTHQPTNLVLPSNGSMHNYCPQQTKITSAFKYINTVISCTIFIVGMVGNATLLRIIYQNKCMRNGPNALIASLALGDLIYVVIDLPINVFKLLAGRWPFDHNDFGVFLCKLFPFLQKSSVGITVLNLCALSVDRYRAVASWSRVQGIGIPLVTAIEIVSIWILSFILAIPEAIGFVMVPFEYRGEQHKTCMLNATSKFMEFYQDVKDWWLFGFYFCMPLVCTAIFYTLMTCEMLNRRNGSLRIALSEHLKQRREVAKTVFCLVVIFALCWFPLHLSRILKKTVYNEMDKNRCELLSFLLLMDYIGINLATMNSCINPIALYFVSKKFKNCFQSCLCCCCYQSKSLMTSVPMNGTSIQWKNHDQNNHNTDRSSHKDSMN

As usually defined, the IC50 is the concentration needed to halve the response being measured. Consider `CCCCN(CCCC)C(=O)CN1C[C@H](c2cc(OC)c3c(c2)OCO3)[C@@H](C(=O)O)[C@@H]1CC(C)(C)CCC` [ABT-546], for which the IC50 came out at 3 nM.
